The values that follow come from ChEMBL document CHEMBL4002575, “Progress in the development of β-lactams as N-Acylethanolamine Acid Amidase (NAAA) inhibitors: Synthesis and SAR study of new, potent N-O-substituted derivatives” (Eur J Med Chem, 2017).

The species entered for one experiment is Homo sapiens. The experiment in a line: Selectivity ratio of IC50 for human acid ceramidase to IC50 for recombinant human spleen NAAA. An outline of the steps:
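Ratio of h-AC IC50 to h-NAAA IC50, each the mean of three determinations in fluorogenic assays. The NAAA was recombinant human enzyme overexpressed in HEK293 cells, purified, then activated for 3 h at 37 °C at pH 4.5 (phosphate/citrate, 3 mM DTT, 0.1% Triton X-100). The NAAA substrate was PAMCA (hexadecanamide of 7-amino-4-methylcoumarin).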

Experiment [1] addresses T1, N-acylethanolamine-hydrolyzing acid amidase (Rattus norvegicus, UniProt Q5KTC7).
T1 sequence (Q5KTC7 whole entry): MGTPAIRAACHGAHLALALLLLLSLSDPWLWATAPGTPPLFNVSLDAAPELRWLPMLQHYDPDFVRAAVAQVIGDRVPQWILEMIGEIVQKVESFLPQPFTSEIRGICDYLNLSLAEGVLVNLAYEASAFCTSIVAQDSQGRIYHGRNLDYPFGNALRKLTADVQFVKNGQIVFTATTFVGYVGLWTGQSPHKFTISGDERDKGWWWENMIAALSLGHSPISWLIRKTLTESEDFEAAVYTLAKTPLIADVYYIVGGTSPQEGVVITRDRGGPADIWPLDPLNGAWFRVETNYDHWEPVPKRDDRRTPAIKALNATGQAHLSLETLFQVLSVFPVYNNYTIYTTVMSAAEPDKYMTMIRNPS
In words: Inhibition of rat NAAA expressed in HEK cells after 30 mins. The format is cell-based.

On to `C[C@H]1[C@H](NC(=O)OCCCCC2CCCCC2)C(=O)N1Oc1ccc(S(C)(=O)=O)cc1`, for which the Ratio IC50 in the experiment listed under Homo sapiens worked out at 340.
As for `O=C(N[C@H]1CNC1=O)OCCCCC1CCCCC1`, it took 0.028 µM to reach half-maximal inhibition in experiment [1] (IC50).
